According to the NIST ThermoML archive (doi:10.1016/j.jct.2007.09.007):
± gives the expanded uncertainty stated by the source.

Assay: xn = mol fraction of the nth substance listed
Settings: 100 kPa, Liquid

CCCCOCCCC [dibutyl ether] + CC#N
mass density (288.15 K, x1 = 0.02): 786.5 ± 0.46 kg/m3 | mass density (288.15 K, x1 = 0.0339): 785.97 ± 0.46 kg/m3 | mass density (288.15 K, x1 = 0.0514): 785.31 ± 0.46 kg/m3 | mass density (288.15 K, x1 = 0.096): 783.78 ± 0.47 kg/m3 | mass density (288.15 K, x1 = 0.1542): 782.12 ± 0.47 kg/m3 | mass density (288.15 K, x1 = 0.1891): 781.24 ± 0.48 kg/m3 | mass density (288.15 K, x1 = 0.2048): 780.89 ± 0.48 kg/m3 | mass density (288.15 K, x1 = 0.2371): 780.21 ± 0.48 kg/m3 | mass density (288.15 K, x1 = 0.2433): 780.08 ± 0.48 kg/m3 | mass density (288.15 K, x1 = 0.254): 779.88 ± 0.48 kg/m3 | mass density (288.15 K, x1 = 0.2763): 779.47 ± 0.48 kg/m3 | mass density (288.15 K, x1 = 0.3218): 778.71 ± 0.49 kg/m3 | mass density (288.15 K, x1 = 0.3456): 778.33 ± 0.49 kg/m3 | mass density (288.15 K, x1 = 0.3553): 778.18 ± 0.49 kg/m3 | mass density (288.15 K, x1 = 0.4008): 777.55 ± 0.5 kg/m3 | mass density (288.15 K, x1 = 0.4461): 777.02 ± 0.5 kg/m3 | mass density (288.15 K, x1 = 0.4902): 776.53 ± 0.51 kg/m3 | mass density (288.15 K, x1 = 0.5653): 775.78 ± 0.52 kg/m3 | mass density (288.15 K, x1 = 0.5808): 775.64 ± 0.52 kg/m3 | mass density (288.15 K, x1 = 0.6292): 775.21 ± 0.53 kg/m3 | mass density (288.15 K, x1 = 0.6996): 774.64 ± 0.54 kg/m3 | mass density (288.15 K, x1 = 0.7545): 774.22 ± 0.55 kg/m3 | mass density (288.15 K, x1 = 0.8041): 773.84 ± 0.56 kg/m3 | mass density (288.15 K, x1 = 0.8421): 773.56 ± 0.57 kg/m3 | mass density (288.15 K, x1 = 0.8638): 773.4 ± 0.57 kg/m3 | mass density (288.15 K, x1 = 0.9076): 773.09 ± 0.58 kg/m3 | mass density (288.15 K, x1 = 0.95): 772.82 ± 0.59 kg/m3 | mass density (288.15 K, x1 = 0.9777): 772.59 ± 0.59 kg/m3 | mass density (288.15 K, x1 = 0.9902): 772.49 ± 0.6 kg/m3 | mass density (293.15 K, x1 = 0.02): 781.19 ± 0.47 kg/m3 | mass density (293.15 K, x1 = 0.0339): 780.66 ± 0.47 kg/m3 | mass density (293.15 K, x1 = 0.0514): 780.03 ± 0.47 kg/m3 | mass density (293.15 K, x1 = 0.096): 778.6 ± 0.47 kg/m3 | mass density (293.15 K, x1 = 0.1542): 777.03 ± 0.48 kg/m3 | mass density (293.15 K, x1 = 0.1891): 776.24 ± 0.48 kg/m3 | mass density (293.15 K, x1 = 0.2048): 775.91 ± 0.48 kg/m3 | mass density (293.15 K, x1 = 0.2371): 775.27 ± 0.49 kg/m3 | mass density (293.15 K, x1 = 0.2433): 775.16 ± 0.49 kg/m3 | mass density (293.15 K, x1 = 0.254): 774.97 ± 0.49 kg/m3 | mass density (293.15 K, x1 = 0.2763): 774.58 ± 0.49 kg/m3 | mass density (293.15 K, x1 = 0.3218): 773.86 ± 0.5 kg/m3 | mass density (293.15 K, x1 = 0.3456): 773.51 ± 0.5 kg/m3 | mass density (293.15 K, x1 = 0.3553): 773.39 ± 0.5 kg/m3 | mass density (293.15 K, x1 = 0.4008): 772.8 ± 0.5 kg/m3 | mass density (293.15 K, x1 = 0.4461): 772.3 ± 0.51 kg/m3 | mass density (293.15 K, x1 = 0.4902): 771.85 ± 0.52 kg/m3 | mass density (293.15 K, x1 = 0.5653): 771.18 ± 0.53 kg/m3 | mass density (293.15 K, x1 = 0.5808): 771.05 ± 0.53 kg/m3 | mass density (293.15 K, x1 = 0.6292): 770.68 ± 0.53 kg/m3 | mass density (293.15 K, x1 = 0.6996): 770.17 ± 0.55 kg/m3 | mass density (293.15 K, x1 = 0.7545): 769.79 ± 0.56 kg/m3 | mass density (293.15 K, x1 = 0.8041): 769.45 ± 0.56 kg/m3 | mass density (293.15 K, x1 = 0.8421): 769.21 ± 0.57 kg/m3 | mass density (293.15 K, x1 = 0.8638): 769.06 ± 0.58 kg/m3 | mass density (293.15 K, x1 = 0.9076): 768.76 ± 0.58 kg/m3 | mass density (293.15 K, x1 = 0.95): 768.49 ± 0.59 kg/m3 | mass density (293.15 K, x1 = 0.9777): 768.29 ± 0.6 kg/m3 | mass density (293.15 K, x1 = 0.9902): 768.2 ± 0.6 kg/m3 | mass density (298.15 K, x1 = 0.02): 775.84 ± 0.48 kg/m3 | mass density (298.15 K, x1 = 0.0339): 775.34 ± 0.48 kg/m3 | mass density (298.15 K, x1 = 0.0514): 774.76 ± 0.48 kg/m3 | mass density (298.15 K, x1 = 0.096): 773.41 ± 0.48 kg/m3 | mass density (298.15 K, x1 = 0.1542): 771.94 ± 0.49 kg/m3 | mass density (298.15 K, x1 = 0.1891): 771.18 ± 0.49 kg/m3 | mass density (298.15 K, x1 = 0.2048): 770.88 ± 0.49 kg/m3 | mass density (298.15 K, x1 = 0.2371): 770.29 ± 0.5 kg/m3 | mass density (298.15 K, x1 = 0.2433): 770.18 ± 0.5 kg/m3 | mass density (298.15 K, x1 = 0.254): 770 ± 0.5 kg/m3 | mass density (298.15 K, x1 = 0.2763): 769.65 ± 0.5 kg/m3 | mass density (298.15 K, x1 = 0.3218): 768.99 ± 0.5 kg/m3 | mass density (298.15 K, x1 = 0.3456): 768.67 ± 0.51 kg/m3 | mass density (298.15 K, x1 = 0.3553): 768.55 ± 0.51 kg/m3 | mass density (298.15 K, x1 = 0.4008): 768.01 ± 0.51 kg/m3 | mass density (298.15 K, x1 = 0.4461): 767.57 ± 0.52 kg/m3 | mass density (298.15 K, x1 = 0.4902): 767.15 ± 0.52 kg/m3 | mass density (298.15 K, x1 = 0.5653): 766.56 ± 0.53 kg/m3 | mass density (298.15 K, x1 = 0.5808): 766.44 ± 0.53 kg/m3 | mass density (298.15 K, x1 = 0.6292): 766.11 ± 0.54 kg/m3 | mass density (298.15 K, x1 = 0.6996): 765.64 ± 0.55 kg/m3 | mass density (298.15 K, x1 = 0.7545): 765.3 ± 0.56 kg/m3 | mass density (298.15 K, x1 = 0.8041): 765 ± 0.57 kg/m3 | mass density (298.15 K, x1 = 0.8421): 764.78 ± 0.58 kg/m3 | mass density (298.15 K, x1 = 0.8638): 764.65 ± 0.58 kg/m3 | mass density (298.15 K, x1 = 0.9076): 764.38 ± 0.59 kg/m3 | mass density (298.15 K, x1 = 0.95): 764.12 ± 0.6 kg/m3 | mass density (298.15 K, x1 = 0.9777): 763.95 ± 0.6 kg/m3 | mass density (298.15 K, x1 = 0.9902): 763.86 ± 0.61 kg/m3 | mass density (303.15 K, x1 = 0.02): 770.48 ± 0.49 kg/m3 | mass density (303.15 K, x1 = 0.0339): 770.01 ± 0.49 kg/m3 | mass density (303.15 K, x1 = 0.0514): 769.46 ± 0.49 kg/m3 | mass density (303.15 K, x1 = 0.096): 768.2 ± 0.49 kg/m3 | mass density (303.15 K, x1 = 0.1542): 766.82 ± 0.5 kg/m3 | mass density (303.15 K, x1 = 0.1891): 766.12 ± 0.5 kg/m3 | mass density (303.15 K, x1 = 0.2048): 765.83 ± 0.5 kg/m3 | mass density (303.15 K, x1 = 0.2371): 765.28 ± 0.5 kg/m3 | mass density (303.15 K, x1 = 0.2433): 765.18 ± 0.5 kg/m3 | mass density (303.15 K, x1 = 0.254): 765.01 ± 0.5 kg/m3 | mass density (303.15 K, x1 = 0.2763): 764.68 ± 0.51 kg/m3 | mass density (303.15 K, x1 = 0.3218): 764.07 ± 0.51 kg/m3 | mass density (303.15 K, x1 = 0.3456): 763.78 ± 0.51 kg/m3 | mass density (303.15 K, x1 = 0.3553): 763.68 ± 0.51 kg/m3 | mass density (303.15 K, x1 = 0.4008): 763.2 ± 0.52 kg/m3 | mass density (303.15 K, x1 = 0.4461): 762.79 ± 0.52 kg/m3 | mass density (303.15 K, x1 = 0.4902): 762.42 ± 0.53 kg/m3 | mass density (303.15 K, x1 = 0.5653): 761.87 ± 0.54 kg/m3 | mass density (303.15 K, x1 = 0.5808): 761.78 ± 0.54 kg/m3 | mass density (303.15 K, x1 = 0.6292): 761.48 ± 0.55 kg/m3 | mass density (303.15 K, x1 = 0.6996): 761.1 ± 0.56 kg/m3 | mass density (303.15 K, x1 = 0.7545): 760.8 ± 0.57 kg/m3 | mass density (303.15 K, x1 = 0.8041): 760.54 ± 0.58 kg/m3 | mass density (303.15 K, x1 = 0.8421): 760.34 ± 0.58 kg/m3 | mass density (303.15 K, x1 = 0.8638): 760.23 ± 0.59 kg/m3 | mass density (303.15 K, x1 = 0.9076): 759.98 ± 0.6 kg/m3 | mass density (303.15 K, x1 = 0.95): 759.75 ± 0.6 kg/m3 | mass density (303.15 K, x1 = 0.9777): 759.6 ± 0.61 kg/m3 | mass density (303.15 K, x1 = 0.9902): 759.52 ± 0.61 kg/m3
